From patent US8618075B2, “Certain compounds, compositions and methods” (Eisai Inc., priority 2007, dated 2013)

The chains behind the UniProt entries cited, without tags or fusion partners. Where a name states a change or a piece, a line headed by the entry shows the natural chain unless it says otherwise.
UniProt P32320: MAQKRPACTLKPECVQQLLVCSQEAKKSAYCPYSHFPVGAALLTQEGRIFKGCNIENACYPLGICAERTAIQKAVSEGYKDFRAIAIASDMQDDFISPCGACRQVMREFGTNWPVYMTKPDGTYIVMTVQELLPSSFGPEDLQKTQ

Target: purified human recombinant CDA (Homo sapiens (Human), UniProt P32320)
Assay: CDA enzymatic activity assay (absorbance change at 286 nm, deamination of cytidine to uridine)
Assay type: biochemical
Conditions: cytidine 50 μM, potassium phosphate buffer pH 7.4

Row | Substance | IC50
1 | 2′(S)-fluoro-2′deoxy-tetrahydrouridine [Compound 3] | 2000 ± 1000 nM
2 | 2′(R)-Fluoro-2′-deoxy-TetraHydroUridine [Compound 2] | 2000 ± 3000 nM
